Reference: article PMC7093532, “Iron bioavailability from bouillon fortified with a novel ferric phytate compound: a stable iron isotope study in healthy women (part II)” (Scientific Reports, 2020)

Experiment: Stable iron isotope absorption study in healthy adult women (erythrocyte incorporation of oral isotopic labels)
Settings: n = 22 women, 4.2 mg labeled iron
From the text: The human study was a controlled, single blind (to the subjects), single center trial. Healthy adult women (n = 23) consumed 6 different types of investigational products in random order with a cross-over design: bouillon with and without corn porridge fortified either with [^58Fe]-PA-HCP, [^54Fe]-SO4, or [^57Fe]-PP, resulting in 6 different test meal sequences. The sequences built up a Partial Williams Latin square, balanced for first order carry over. The experimental phase lasted for a period of 33 days.
The human study was conducted between December 2016 and February 2017 at the Laboratory of Human Nutrition of the ETH Zurich. […] The study procedure was explained in detail and written informed consent was obtained. An interview was conducted, weight and height were measured and a venous blood sample was drawn to assess whether participants fulfilled inclusion and exclusion criteria (Hb, Ht, number of erythrocytes, PF). […] Quantitative consumption of the investigational product was ensured by washing the glass test meal container 2 times with 10 mL of ultrapure water. […]
Venous blood samples were collected after an overnight fast on day 1 (baseline), day 17 and day 33 (endpoint) to determine iron status and iron absorption from the test meals. Iron absorption was determined by quantifying the incorporation of oral stable isotopic labels into erythrocytes. […]

## O=P([O-])([O-])OP(=O)([O-])[O-].O=P([O-])([O-])OP(=O)([O-])[O-].O=P([O-])([O-])OP(=O)([O-])[O-].[Fe+3].[Fe+3].[Fe+3].[Fe+3] [FePP, Ferric pyrophosphate]
Bouillon + inhibitory meal rich in phytate
  Fractional iron absorption (FIA), geo-mean: 0.3%
Fortified reconstituted bouillon
  Fractional iron absorption (FIA), geo-mean: 1.7%
